In the assay the target is Acetylcholinesterase (Electrophorus electricus, UniProt O42275). Kind of assay: Reversible mixed-type inhibition of electric eel acetylcholinesterase using acetylcholine bromide as substrate assessed as free enzyme-inhibitor complex by Lineweaver-Burk plot analysis.

Amino acid sequences for entries named in this document (tags omitted). A change or cut given only in a name is not applied to a line headed by its entry.
UniProt O42275: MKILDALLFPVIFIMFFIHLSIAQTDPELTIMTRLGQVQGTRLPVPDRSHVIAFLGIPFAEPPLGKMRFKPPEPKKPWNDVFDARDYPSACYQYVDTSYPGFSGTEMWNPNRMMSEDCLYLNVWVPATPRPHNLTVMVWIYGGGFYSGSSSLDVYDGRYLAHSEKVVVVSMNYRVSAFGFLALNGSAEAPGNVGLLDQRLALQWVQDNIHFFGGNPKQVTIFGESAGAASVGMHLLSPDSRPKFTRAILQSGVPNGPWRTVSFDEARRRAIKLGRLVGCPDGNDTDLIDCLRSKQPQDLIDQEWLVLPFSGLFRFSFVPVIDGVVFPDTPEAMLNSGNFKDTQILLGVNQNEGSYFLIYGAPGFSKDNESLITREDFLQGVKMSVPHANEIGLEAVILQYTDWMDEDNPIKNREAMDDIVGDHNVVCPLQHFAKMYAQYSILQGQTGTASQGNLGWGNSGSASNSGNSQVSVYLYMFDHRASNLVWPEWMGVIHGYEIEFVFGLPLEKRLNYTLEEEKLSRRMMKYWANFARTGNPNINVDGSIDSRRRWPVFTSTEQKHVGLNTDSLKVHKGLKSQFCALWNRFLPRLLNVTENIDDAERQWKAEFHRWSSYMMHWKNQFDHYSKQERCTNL

Consider `CNC(=O)Oc1ccc2c(c1)[C@]1(C)CCN(C)[C@@H]1N2C` [PHYSOSTIGMINE SALICYLATE], for which the Ki was 210 nM.

For orientation: Ki means the equilibrium dissociation constant of an inhibitor or competing ligand from its target.

The values are drawn from ChEMBL document CHEMBL3272245, “Potent reversible anticholinesterase agents. Bis- and mono-N-substituted benzoquinolinium halides” (J Med Chem, 1977).
